In ChEMBL document CHEMBL1122375, “Synthesis and biological evaluation of 2-fluoro-8-azaadenosine and related compounds” (J Med Chem, 1983):

What was measured:
[1] = substrate: Nc1ncnc2c1ncn2[C@@H]1O[C@H](CO)[C@@H](O)[C@@H]1O; assay: (§1) Kinetic parameter in calf intestine adenosine deaminase.
[2] = substrate: Nc1ncnc2c1ncn2[C@@H]1O[C@H](CO)[C@@H](O)[C@H]1O; assay: as §1
[3] = substrate: Nc1nc(N)c2nnn([C@@H]3O[C@H](CO)[C@@H](O)[C@H]3O)c2n1; assay: as §1
[4] = substrate: Nc1ncnc2c1nnn2[C@@H]1O[C@H](CO)[C@@H](O)[C@@H]1O; assay: as §1

B1: Adenosine deaminase (Bos taurus), P56658 (protein)
chain: MAQTPAFNKPKVELHVHLDGAIKPETILYYGRKRGIALPADTPEELQNIIGMDKPLSLPEFLAKFDYYMPAIAGCREAVKRIAYEFVEMKAKDGVVYVEVRYSPHLLANSKVEPIPWNQAEGDLTPDEVVSLVNQGLQEGERDFGVKVRSILCCMRHQPSWSSEVVELCKKYREQTVVAIDLAGDETIEGSSLFPGHVKAYAEAVKSGVHRTVHAGEVGSANVVKEAVDTLKTERLGHGYHTLEDATLYNRLRQENMHFEVCPWSSYLTGAWKPDTEHPVVRFKNDQVNYSLNTDDPLIFKSTLDTDYQMTKNEMGFTEEEFKRLNINAAKSSFLPEDEKKELLDLLYKAYGMPSPASAEQCL
In the case of B1, the Km [1] is reported as 120 µM, the Km [2] is reported as 29 µM and the Km [3] is reported as 12 µM. It also gave a Km [4] of 430 µM.
